Results reported in article PMC5189922 (Journal of medicinal chemistry, 2016).

By UniProt entry, the sequences of proteins in these tests, tags left out.
UniProt P35372, whole entry: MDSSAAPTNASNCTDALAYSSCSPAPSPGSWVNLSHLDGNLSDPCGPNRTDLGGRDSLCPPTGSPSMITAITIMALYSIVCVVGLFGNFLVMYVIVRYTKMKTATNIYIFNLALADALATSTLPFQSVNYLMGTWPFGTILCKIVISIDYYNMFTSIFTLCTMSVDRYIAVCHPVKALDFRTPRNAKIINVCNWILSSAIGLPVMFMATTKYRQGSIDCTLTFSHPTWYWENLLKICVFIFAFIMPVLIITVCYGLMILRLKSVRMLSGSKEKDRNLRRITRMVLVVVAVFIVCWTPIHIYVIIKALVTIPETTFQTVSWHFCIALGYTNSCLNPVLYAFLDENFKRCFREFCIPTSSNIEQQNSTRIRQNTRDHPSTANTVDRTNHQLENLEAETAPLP

Molecular target: human µ-opioid receptor (Homo sapiens, UniProt P35372)
Format: cell-based
Conditions: read-out: EC50 ± SD µ

SMILES: COC(=O)[C@@H]1C[C@@H](OC(C)=O)C(=O)[C@H]2[C@@]1(C)CC[C@H]1C(=O)O[C@H](c3ccoc3)C[C@]21C [Compound 1c]
- EC50: > 10 µM
